The assay addresses T1, MAO-A (Homo sapiens, UniProt P21397).
T1 construct: purchased
The assay can be described thus: MAO-Glo luminescent assay, MAO-A inhibition. To be noted: 1 hour at room temperature; compared among five alkaloids. The format is biochemical. An excerpt: This example describes experiments for determining monoamine oxidase (MAO) inhibition for isomyosmine and other alkaloids. MAOs are enzymes located on the outer membrane of mitochondria and are involved in the catabolism of monoamine neurotransmitters. There are two well-characterized isoenzymes: MAO-A, which predominantly catabolizes serotonin and norepinephrine, and MAO-B, which preferentially catabolizes benzylamine and phenylethylamine. Dopamine and tyramine are metabolized by both isoforms.
To detect the activity of MAO, a luminescent method (MAO-Glo Assay kit, from Promega, Cat #V1401) was used. In this method, a MAO substrate (a derivative of beetle luciferin provided in the kit) is mixed with the compound to be tested (in this case, myosmine and control compounds). Then, the MAO enzymes (either A or B, purchased separately) are added to the mixture and incubated with the reaction for 1 hour at room temperature. The MAO enzymes, if not inhibited by the test compound, will convert the substrate into methyl ester luciferin. Finally, a luciferin detection reagent (provided by the kit) is added (20 minutes at room temperature) to stop the MAO reaction and convert methyl ester luciferin into D-luciferin. […] The luminescent signal is measured and recorded using a luminometer. […]

The chains behind the UniProt entries cited, without tags or fusion partners.
UniProt P21397, whole entry, species assumed: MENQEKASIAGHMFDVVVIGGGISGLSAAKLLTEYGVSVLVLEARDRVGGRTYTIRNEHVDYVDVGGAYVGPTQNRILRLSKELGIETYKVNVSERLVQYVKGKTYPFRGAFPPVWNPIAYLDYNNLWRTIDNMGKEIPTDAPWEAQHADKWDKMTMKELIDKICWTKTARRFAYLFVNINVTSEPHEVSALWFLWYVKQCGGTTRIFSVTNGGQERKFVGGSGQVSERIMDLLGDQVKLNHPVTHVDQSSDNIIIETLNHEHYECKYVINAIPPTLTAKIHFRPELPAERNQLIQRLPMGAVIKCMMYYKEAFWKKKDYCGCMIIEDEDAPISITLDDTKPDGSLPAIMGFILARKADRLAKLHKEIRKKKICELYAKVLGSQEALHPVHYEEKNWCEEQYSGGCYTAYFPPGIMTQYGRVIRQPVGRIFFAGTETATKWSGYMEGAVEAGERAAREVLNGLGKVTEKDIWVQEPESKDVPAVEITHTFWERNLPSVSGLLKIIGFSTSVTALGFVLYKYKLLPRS

Turning to `C#CCN(C)CCCOc1ccc(Cl)cc1Cl` [clorgyline], the “inhibition of the enzymatic activity of MAO-A (in words, curve position in FIG. 1)” value is given as “greatly shifted leftward”.
